Experimental data taken from patent US7510699B2, “In vivo fluorescence sensors, systems, and related methods operating in conjunction with fluorescent analytes” (Sicel Technologies, Inc., priority 2003, dated 2009).

Experiments:
[1] = tested on: BT474 tumors; conditions: mouse, in vivo
[2] = tested on: BT474, MCF7, MCF7TamR tumors; conditions: mouse, in vivo
[3] = mouse, in vivo

## ALEXA FLUOR 647 labeled HERCEPTIN: HERCEPTIN (trastuzumab, Genentech) anti-HER2/neu antibody labeled with Alexa 647 fluorophore
[1]
  Results Summary of repeat experiment: Same results as above with
  normal tissue signal after 17 hours: slightly higher than baseline readings
  signal in tumor vs normal tissue or pre-injection baseline in tumor: significantly higher
  time peak uptake reached after injection: many hours
[2]
  AUC in Her2 overexpressing lines vs Her2 negative line: greater
  AUC vs non-specific MOAb in Her2(+) lines: greater
  AUC vs non-specific MOAb in the MCF7 line: equivalent
  uptake in orthotopic site compared to ectopic site: may be greater
[3]
  Signal intensity vs that previously seen in normal tissue of HERCEPTIN experiments: Signal intensity was equal to that
  distribution throughout the body by external probing: probing showed it was fairly equally
  signal in mammary tissue: have been slightly higher in mammary
[3]; iv
  Peak uptake occurred: Peak uptake occurred within minutes.
